Test results: ChEMBL document CHEMBL4665801, “Pyrazole-Based Lactate Dehydrogenase Inhibitors with Optimized Cell Activity and Pharmacokinetic Properties” (J Med Chem, 2020)

Assays:
[1] = Selectivity ratio of IC50 for inhibition of porcine heart MDH to IC50 for inhibition of recombinant human LDHA
[2] = Selectivity ratio of IC50 for inhibition of porcine heart MDH to IC50 for inhibition of recombinant human LDHB

SMILES	Ratio IC50 [1]	Ratio IC50 [2]
NS(=O)(=O)c1ccc(Cc2c(-c3ccc(F)c(C#CCN4CCCC4)c3)nn(-c3nc(C(=O)O)cs3)c2CC2CC2)cc1F	> 2500	> 2500
NS(=O)(=O)c1ccc(Cc2c(-c3ccc(F)c(/C=C/C4CC4)c3)nn(-c3nc(C(=O)O)cs3)c2CC2CC2)cc1F	> 2500	> 2500
CC(C)(C)C#Cc1cc(-c2nn(-c3nc(C(=O)O)cs3)c(CC3CC3)c2Cc2ccc(S(N)(=O)=O)c(F)c2)ccc1F	> 2500	> 2500
NS(=O)(=O)c1ccc(Cc2c(-c3ccc(F)c(C#CCN4CCOCC4)c3)nn(-c3nc(C(=O)O)cs3)c2CC2CC2)cc1F	> 2500	> 2500
Cc1nc(C#Cc2cccc(-c3nn(-c4nc(C(=O)O)cs4)c(CCC4CC4)c3Cc3ccc(S(N)(=O)=O)c(F)c3)c2)cs1	> 2500	> 2500
Cn1cc(C#Cc2cc(-c3nn(-c4nc(C(=O)O)cs4)c(CC4CC4)c3Cc3ccc(S(N)(=O)=O)c(F)c3)ccc2F)cn1	> 2500	> 2500
NS(=O)(=O)c1ccc(Cc2c(-c3cccc(-c4ccccc4)c3)nn(-c3nc(C(=O)O)cs3)c2CC2CC2(F)F)cc1 (stereo unspecified)	> 2500	> 2500
NS(=O)(=O)c1ccc(Cc2c(-c3cccc(C#CC4CCCC4)c3)nn(-c3nc(C(=O)O)cs3)c2CC2CC2)cc1F	> 2500	> 2500
NS(=O)(=O)c1ccc(Cc2c(-c3cccc(C#Cc4ccc(C5CC5)s4)c3)nn(-c3nc(C(=O)O)cs3)c2CC2CC2)cc1F	> 2500	> 2500
CC(C)(C)c1ccc(C#Cc2cc(-c3nn(-c4nc(C(=O)O)cs4)c(CC4CC4)c3Cc3ccc(S(N)(=O)=O)c(F)c3)ccc2F)s1	> 2500	> 2500
CCCC#Cc1cc(-c2nn(-c3nc(C(=O)O)cs3)c(CC3CC3)c2Cc2ccc(S(N)(=O)=O)c(F)c2)ccc1F	> 2500	> 2500
Cc1cnc(C#Cc2cccc(-c3nn(-c4nc(C(=O)O)cs4)c(CC4CC4)c3Cc3ccc(S(N)(=O)=O)c(F)c3)c2)o1	> 2500	> 2500
NS(=O)(=O)c1ccc(Cc2c(-c3ccc(F)c(C#CC(F)F)c3)nn(-c3nc(C(=O)O)cs3)c2CC2CC2)cc1F	> 2500	> 2500
CC(C)C#Cc1cc(-c2nn(-c3nc(C(=O)O)cs3)c(CC3CC3)c2Cc2ccc(S(N)(=O)=O)c(F)c2)ccc1F	> 2500	> 2500
Cc1cc(C#Cc2cccc(-c3nn(-c4nc(C(=O)O)cs4)c(CC4CC4)c3Cc3ccc(S(N)(=O)=O)c(F)c3)c2)c(C)s1	> 2500	> 2500
COCC#Cc1cc(-c2nn(-c3nc(C(=O)O)cs3)c(CC3CC3)c2Cc2ccc(S(N)(=O)=O)c(F)c2)ccc1F	> 2500	> 2500
NS(=O)(=O)c1ccc(Cc2c(-c3ccc(F)c(C#CC4CCC4)c3)nn(-c3nc(C(=O)O)cs3)c2CC2CC2)cc1F	> 2500	> 2500
Cc1ncc(C#Cc2cccc(-c3nn(-c4nc(C(=O)O)cs4)c(CC4CC4)c3Cc3ccc(S(N)(=O)=O)c(F)c3)c2)s1	> 2500	> 2500
C#Cc1cc(-c2nn(-c3nc(C(=O)O)cs3)c(CC3CC3)c2Cc2ccc(S(N)(=O)=O)c(F)c2)ccc1F	> 2500	> 2500
NS(=O)(=O)c1ccc(Cc2c(-c3cccc(C#Cc4ccc(C(F)(F)F)s4)c3)nn(-c3nc(C(=O)O)cs3)c2CC2CC2)cc1F	> 2500	> 2500

SMILES	Ratio IC50 [1]	Ratio IC50 [2]
Cc1ccc(C#Cc2cc(-c3nn(-c4nc(C(=O)O)cs4)c(CC4CC4)c3Cc3ccc(S(N)(=O)=O)c(F)c3)ccc2F)o1	> 2500	> 2500
C/C=C/c1cc(-c2nn(-c3nc(C(=O)O)cs3)c(CC3CC3)c2Cc2ccc(S(N)(=O)=O)c(F)c2)ccc1F	> 2500	> 2500
NS(=O)(=O)c1ccc(Cc2c(-c3cccc(-c4ccccc4)c3)nn(-c3nc(C(=O)O)cs3)c2C2(C(F)(F)F)CC2)cc1	> 2500	> 2500
Cn1cncc1C#Cc1cc(-c2nn(-c3nc(C(=O)O)cs3)c(CC3CC3)c2Cc2ccc(S(N)(=O)=O)c(F)c2)ccc1F	> 2500	> 2500
NS(=O)(=O)c1ccc(Cc2c(-c3cccc(C#Cc4ccc(C5CCC5)s4)c3)nn(-c3nc(C(=O)O)cs3)c2CC2CC2)cc1F	> 2500	> 2500
NS(=O)(=O)c1ccc(Cc2c(-c3ccc(F)c(C#CC(F)(F)F)c3)nn(-c3nc(C(=O)O)cs3)c2CC2CC2)cc1F	> 2500	> 2500
Cc1ccc(C#Cc2cccc(-c3nn(-c4nc(C(=O)O)cs4)c(CC4CC4)c3Cc3ccc(S(N)(=O)=O)c(F)c3)c2)o1	> 2500	> 2500
CCCCC#Cc1cc(-c2nn(-c3nc(C(=O)O)cs3)c(CC3CC3)c2Cc2ccc(S(N)(=O)=O)c(F)c2)ccc1F	> 2500	> 2500
NS(=O)(=O)c1ccc(Cc2c(-c3cccc(-c4ccccc4)c3)nn(-c3nc(C(=O)O)cs3)c2CC2CC2)c(F)c1	> 2500	> 2500
NS(=O)(=O)c1ccc(Cc2c(-c3ccc(F)c(C#CC4CCCC4)c3)nn(-c3nc(C(=O)O)cs3)c2CC2CC2)cc1F	> 2500	> 2500
NS(=O)(=O)c1ccc(Cc2c(-c3cccc(-c4ccccc4)c3)nn(-c3nc(C(=O)O)cs3)c2CC(F)(F)F)cc1	> 2500	> 2500
Cc1ncc(C#Cc2cccc(-c3nn(-c4nc(C(=O)O)cs4)c(CCC4CC4)c3Cc3ccc(S(N)(=O)=O)c(F)c3)c2)s1	> 2500	> 2500
Cc1ncc(C#Cc2cc(-c3nn(-c4nc(C(=O)O)cs4)c(CC4CC4)c3Cc3ccc(S(N)(=O)=O)c(F)c3)ccc2F)s1	> 2500	> 2500
CC(F)C#Cc1cc(-c2nn(-c3nc(C(=O)O)cs3)c(CC3CC3)c2Cc2ccc(S(N)(=O)=O)c(F)c2)ccc1F (stereo unspecified)	> 2500	> 2500
NS(=O)(=O)c1ccc(Cc2c(-c3cccc(C#Cc4ccc(C(F)F)s4)c3)nn(-c3nc(C(=O)O)cs3)c2CC2CC2)cc1F	> 2500	> 2500
Cc1cnc(C#Cc2cccc(-c3nn(-c4nc(C(=O)O)cs4)c(CC4CC4)c3Cc3ccc(S(N)(=O)=O)c(F)c3)c2)s1	> 2500	> 2500
Cc1cnc(C#Cc2cc(-c3nn(-c4nc(C(=O)O)cs4)c(CC4CC4)c3Cc3ccc(S(N)(=O)=O)c(F)c3)ccc2F)s1	> 2500	> 2500
CC(C)c1ccc(C#Cc2cccc(-c3nn(-c4nc(C(=O)O)cs4)c(CC4CC4)c3Cc3ccc(S(N)(=O)=O)c(F)c3)c2)s1	> 2500	> 2500
Cc1nc(C#Cc2cccc(-c3nn(-c4nc(C(=O)O)cs4)c(CC4CC4)c3Cc3ccc(S(N)(=O)=O)c(F)c3)c2)cs1	> 2500	> 2500
CC(C)(C)/C=C/c1cc(-c2nn(-c3nc(C(=O)O)cs3)c(CC3CC3)c2Cc2ccc(S(N)(=O)=O)c(F)c2)ccc1F	> 2500	> 2500

SMILES	Ratio IC50 [1]	Ratio IC50 [2]
Cc1ccc(C#Cc2cccc(-c3nn(-c4nc(C(=O)O)cs4)c(CCC4CC4)c3Cc3ccc(S(N)(=O)=O)c(F)c3)c2)s1	> 2500	> 2500
NS(=O)(=O)c1ccc(Cc2c(-c3ccc(F)c(C#CCCO)c3)nn(-c3nc(C(=O)O)cs3)c2CC2CC2)cc1F	> 2500	> 2500
NS(=O)(=O)c1ccc(Cc2c(-c3ccc(F)c(-c4ccccc4)c3)nn(-c3nc(C(=O)O)cs3)c2CC2CC2)cc1	> 2500	> 2500
NS(=O)(=O)c1ccc(Cc2c(-c3cccc(-c4ccccc4)c3)nn(-c3nc(C(=O)O)cs3)c2CCC2CC2)cc1	> 2500	> 2500
Cc1ccc(C#Cc2cc(-c3nn(-c4nc(C(=O)O)cs4)c(CCC4CC4)c3Cc3ccc(S(N)(=O)=O)c(F)c3)ccc2F)s1	> 2500	> 2500
Cc1cnc(C#Cc2cccc(-c3nn(-c4nc(C(=O)O)cs4)c(CCC4CC4)c3Cc3ccc(S(N)(=O)=O)c(F)c3)c2)s1	> 2500	> 2500
Cc1ccc(/C=C/c2cccc(-c3nn(-c4nc(C(=O)O)cs4)c(CC4CC4)c3Cc3ccc(S(N)(=O)=O)c(F)c3)c2)s1	> 2500	> 2500
CCC#Cc1cc(-c2nn(-c3nc(C(=O)O)cs3)c(CC3CC3)c2Cc2ccc(S(N)(=O)=O)c(F)c2)ccc1F	> 2500	> 2500
NS(=O)(=O)c1ccc(Cc2c(-c3ccc(F)c(C#CCC4CC4)c3)nn(-c3nc(C(=O)O)cs3)c2CC2CC2)cc1F	> 2500	> 2500
Cc1ccsc1C#Cc1cccc(-c2nn(-c3nc(C(=O)O)cs3)c(CC3CC3)c2Cc2ccc(S(N)(=O)=O)c(F)c2)c1	> 2500	> 2500
Cc1cc(C#Cc2cccc(-c3nn(-c4nc(C(=O)O)cs4)c(CCC4CC4)c3Cc3ccc(S(N)(=O)=O)c(F)c3)c2)c(C)s1	> 2500	> 2500
CC#Cc1cccc(-c2nn(-c3nc(C(=O)O)cs3)c(CC3CC3)c2Cc2ccc(S(N)(=O)=O)c(F)c2)c1	> 2500	> 2500
Cc1cc(C#Cc2cccc(-c3nn(-c4nc(C(=O)O)cs4)c(CC4CC4)c3Cc3ccc(S(N)(=O)=O)c(F)c3)c2)cs1	> 2500	> 2500
Cc1ccc(C#Cc2cc(-c3nn(-c4nc(C(=O)O)cs4)c(CC4CC4)c3Cc3ccc(S(N)(=O)=O)c(F)c3)ccc2F)s1	> 2500	> 2500
NS(=O)(=O)c1ccc(Cc2c(-c3ccc(F)c(C#CCC4CCCO4)c3)nn(-c3nc(C(=O)O)cs3)c2CC2CC2)cc1F (stereo unspecified)	> 2500	> 2500
NS(=O)(=O)c1ccc(Cc2c(-c3ccc(F)c(C#CCC4CCCC4)c3)nn(-c3nc(C(=O)O)cs3)c2CC2CC2)cc1F	> 2500	> 2500
Cc1ccc(C#Cc2cccc(-c3nn(-c4nc(C(=O)O)cs4)c(CCC4CC4)c3Cc3ccc(S(N)(=O)=O)c(F)c3)c2)o1	> 2500	> 2500
CC#Cc1cc(-c2nn(-c3nc(C(=O)O)cs3)c(CC3CC3)c2Cc2ccc(S(N)(=O)=O)c(F)c2)ccc1F	> 2500	> 2500
